Source: patent publication US7947275B2 (Signe Biopharma, Inc., priority 2000, dated 2011)

Tested on: MCF-7K, T47D, ZR-75-1, GH1, GH3, GH4C1, MTW9/PL2 and H301 cells
Assay: CA-PS-pool II with eight ER^+ cell lines in serum-free defined media ± E2
Format: cell-based
Details: 5 mg/mL
Protocol: Effects of CA-PS-pool II on ER^+ Cell Growth in Serum-free Defined Medium. […] The activity was not replaced by serum albumin at 5 mg/mL (data not shown). The estrogen mitogenic effects seen in defined medium containing only a few μg/mL of protein were equal to or greater than those seen in medium containing 30 to 50% (v/v) CDE-horse serum with every ER^+ cell line tested (TABLE 10).

Question: How did the “replacement of the inhibitor activity” value turn out when “serum albumin: serum albumin at 5 mg/mL, species not stated” was run?
Answer: The value was “not replaced”.
